In paper PMC8188423, “Investigating the phosphinic acid tripeptide mimetic DG013A as a tool compound inhibitor of the M1-aminopeptidase ERAP1” (Bioorganic & Medicinal Chemistry Letters, 2021):

Tested on: HCT116 cells
Conditions: 0.075 to 30 µM, 48 or 72 hours

## CC(C)C[C@H](CP(=O)(O)[C@@H](N)CCc1ccccc1)C(=O)N[C@@H](Cc1c[nH]c2ccccc12)C(N)=O [DG013A 1, ((S)-2-(((S)-1-amino-3-(1H-indol-3-yl)-1-oxopropan-2-yl)carbamoyl)-4-methylpentyl)((R)-1-amino-3-phenylpropyl)phosphinic acid, reference compound]
  antiproliferative activity in HCT116 cells: Weak antiproliferative activity
